Assay results taken from article PMC4639559 (2015).

The chains behind the UniProt entries cited, without tags or fusion partners. Residues count along the entry.
UniProt P28335, 33-458: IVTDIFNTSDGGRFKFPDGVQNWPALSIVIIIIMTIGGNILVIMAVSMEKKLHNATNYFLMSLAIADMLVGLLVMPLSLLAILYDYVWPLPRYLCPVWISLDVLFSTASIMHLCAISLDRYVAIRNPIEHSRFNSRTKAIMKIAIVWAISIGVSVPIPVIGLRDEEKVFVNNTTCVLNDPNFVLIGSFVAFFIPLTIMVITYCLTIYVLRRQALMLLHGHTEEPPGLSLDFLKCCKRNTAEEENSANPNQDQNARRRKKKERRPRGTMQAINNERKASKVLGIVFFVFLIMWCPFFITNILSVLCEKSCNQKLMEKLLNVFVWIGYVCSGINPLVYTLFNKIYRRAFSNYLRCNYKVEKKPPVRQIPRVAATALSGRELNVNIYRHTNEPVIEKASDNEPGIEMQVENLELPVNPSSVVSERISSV

Target: 5-HT2Cedited receptor (h) (Homo sapiens, UniProt P28335)
Test: Functional assay
Assay type: cell-based
Settings: read-out: Reference antagonist (IC50)

IC50: 27 nM
SMILES: Cn1ccc2cc3c(cc21)CCN3C(=O)Nc1cccnc1 [SB206553, 5-methyl-1-(3-pyridylcarbamoyl)-1,2,3,5-tetrahydropyrrolo[2,3-f]indole]
